Results: patent US11130759B1, “2-oxoquinazoline derivatives as methionine adenosyltransferase 2A inhibitors” (IDEAYA BIOSCIENCES, INC., priority 2018, dated 2021)

The chains behind the UniProt entries cited, without tags or fusion partners.
UniProt P31153, whole entry: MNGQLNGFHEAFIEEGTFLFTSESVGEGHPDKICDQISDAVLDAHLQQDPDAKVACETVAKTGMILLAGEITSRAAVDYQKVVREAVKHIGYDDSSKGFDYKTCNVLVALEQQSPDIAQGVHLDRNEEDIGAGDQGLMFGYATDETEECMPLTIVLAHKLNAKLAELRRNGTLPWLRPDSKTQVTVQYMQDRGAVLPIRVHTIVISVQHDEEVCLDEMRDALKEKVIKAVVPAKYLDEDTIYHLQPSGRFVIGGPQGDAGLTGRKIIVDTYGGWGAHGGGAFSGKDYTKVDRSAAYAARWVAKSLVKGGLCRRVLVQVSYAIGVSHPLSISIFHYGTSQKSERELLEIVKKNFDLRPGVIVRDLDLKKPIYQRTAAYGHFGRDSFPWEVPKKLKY

Target: Human MAT2A (Homo sapiens (Human), UniProt P31153)
Assay: Phosphate Sensor Fluorescence Assay (MAT2A enzyme inhibition)
Assay type: biochemical
Conditions: read-out: IC50 um, L-methionine 500 uM, ATP 500 uM, class symbols

Compound: C[C@@H](CO)Nc1nc(=O)n(-c2ccccc2Cl)c2nc(C(F)(F)F)ccc12 [one of 273 and 292]
- IC50: 1 to 10 µM
